# Experimental data: ChEMBL document CHEMBL1122375, “Synthesis and biological evaluation of 2-fluoro-8-azaadenosine and related compounds” (J Med Chem, 1983)
# B1: Adenosine deaminase (Bos taurus), P56658 (protein)
# chain: MAQTPAFNKPKVELHVHLDGAIKPETILYYGRKRGIALPADTPEELQNIIGMDKPLSLPEFLAKFDYYMPAIAGCREAVKRIAYEFVEMKAKDGVVYVEVRYSPHLLANSKVEPIPWNQAEGDLTPDEVVSLVNQGLQEGERDFGVKVRSILCCMRHQPSWSSEVVELCKKYREQTVVAIDLAGDETIEGSSLFPGHVKAYAEAVKSGVHRTVHAGEVGSANVVKEAVDTLKTERLGHGYHTLEDATLYNRLRQENMHFEVCPWSSYLTGAWKPDTEHPVVRFKNDQVNYSLNTDDPLIFKSTLDTDYQMTKNEMGFTEEEFKRLNINAAKSSFLPEDEKKELLDLLYKAYGMPSPASAEQCL
# Key:
# [1] = substrate: Nc1ncnc2c1nnn2[C@@H]1O[C@H](CO)[C@@H](O)[C@@H]1O; assay: (§1) Kinetic parameter in calf intestine adenosine deaminase.
# [2] = substrate: Nc1ncnc2c1ncn2[C@@H]1O[C@H](CO)[C@@H](O)[C@@H]1O; assay: as §1
# [3] = substrate: Nc1ncnc2c1ncn2[C@@H]1O[C@H](CO)[C@@H](O)[C@H]1O; assay: as §1
# [4] = substrate: Nc1nc(N)c2nnn([C@@H]3O[C@H](CO)[C@@H](O)[C@H]3O)c2n1; assay: as §1
protein,measurement,setting,value
B1,Km,[1],430 µM
same,Km,[2],120 µM
same,Km,[3],29 µM
same,Km,[4],12 µM
